Apparent affinities of Ab-14 variants for a coronavirus HR2 peptide

Reference: Engelhart et al. 2022, doi:10.1038/s41597-022-01779-4. File: FLAb, binding data.

All variants were tested on one target, the spike HR2 peptide PDVDLGDISGINAS (SARS-CoV-2).

Parent: Ab-14, a human scFv built as VH, a (GGGGS)3 linker, VL. Only the CDRs of the light chain vary.
VH: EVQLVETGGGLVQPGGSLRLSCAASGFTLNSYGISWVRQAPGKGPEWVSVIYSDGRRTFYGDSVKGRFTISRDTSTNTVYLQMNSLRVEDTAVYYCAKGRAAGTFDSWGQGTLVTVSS
VL: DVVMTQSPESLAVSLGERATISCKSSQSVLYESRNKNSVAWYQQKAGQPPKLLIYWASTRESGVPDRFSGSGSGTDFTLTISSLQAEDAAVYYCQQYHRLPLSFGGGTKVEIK

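The parent was found by panning a naive human phage display library on the peptide. AAYL50 was designed without a model: most single CDR substitutions and a random sample of double and triple ones. The scFvs were displayed on barcoded MATa yeast, the peptide on MATalpha yeast. Binding brings cells together so that they mate, and sequencing counts the barcode pairs among the diploids. Scores were corrected for input abundance and mapped to Kd with protein pairs of known affinity run in the same pool. Each pool was mated in three replicate cultures.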

Substitutions are numbered in sequence along the VL above, starting at 1 (not Kabat). The read-out is the apparent dissociation constant on a log10 scale (nM): the lower, the stronger. The mean shown is taken over the replicates in which the pair was detected. "ND" marks a missing value. The strain was present, yet no cells mated with the target were sequenced in that replicate, which points to weak or no binding. In this assay the parent's reference entry averaged 0.65; its copy inside this library read 1.68.

changes,log10 Kd (nM) by replicate,"log10 Kd (nM), mean",empty controls
S26A R34G W56M,0.36 / 0.64 / 0.52,0.51,6/9 (4.89)
S26P Q27R L102N,1.50 / 1.14 / 1.48,1.37,0/9
K24S S25T A40C,ND / ND / ND,ND,1/9 (4.11)
A40N Q95A Y97E,4.64 / ND / ND,4.64,4/9 (4.48)
S25K N35Q E61S,0.48 / 0.62 / 0.72,0.61,1/9 (3.32)
K24Y Q27D,ND / ND / 4.44,4.44,2/9 (3.81)
S28T S58G L102G,2.75 / 2.59 / 3.19,2.85,5/9 (4.60)
R34I K36E P101Y,ND / ND / 5.36,5.36,3/9 (4.12)
S33F S38W L102P,ND / 2.82 / ND,2.82,0/9
E32R H98Q,ND / ND / 2.54,2.54,0/9
R34E N37W R60E,0.90 / 1.35 / 1.20,1.15,3/9 (4.29)
N37A Q96V P101W,2.38 / 2.52 / 1.95,2.28,3/9 (3.76)
N37L Q95I P101E,1.92 / 2.14 / 2.16,2.07,0/9
V29L E61W S103Q,1.51 / 1.76 / 1.81,1.70,0/9
V39W A40F Q96S,ND / ND / 4.45,4.45,2/9 (4.07)
V29F Q95I,ND / ND / ND,ND,1/9 (3.11)
N37H W56N H98L,0.24 / 0.46 / 0.27,0.33,1/9 (3.85)
E32Q N35D S38M,3.18 / 2.92 / 3.65,3.25,3/9 (4.23)
S25I S58C S62L,ND / ND / ND,ND,0/9
N35T K36G S38H,1.92 / 1.72 / 1.61,1.75,1/9 (4.31)
Y31L E61A P101D,ND / 4.42 / 3.60,4.01,1/9 (3.73)
Y31Q N37G Y97W,ND / 4.02 / ND,4.02,0/9
V39D Q96A Y97H,5.22 / ND / 4.80,5.01,4/9 (4.55)
N37H Q95G,ND / ND / ND,ND,0/9
E32A N37R T59Y,2.64 / 2.31 / 2.44,2.46,2/9 (3.58)
S33T W56Q L102G,0.55 / 0.73 / 0.67,0.65,5/9 (4.98)
V29G S58D S62R,0.40 / 1.04 / 0.31,0.58,0/9
A57F S58C L102I,ND / ND / ND,ND,1/9 (3.48)
N35G E61I,1.72 / 1.55 / 1.55,1.61,2/9 (4.10)
K24Q S33R E61M,2.14 / 3.23 / ND,2.69,0/9
V29L Y31Q E61K,ND / ND / ND,ND,0/9
L102H,ND / ND / ND,ND,0/9
S33I R60A Q96A,ND / ND / ND,ND,1/9 (3.58)
Q27T Y31E R60S,2.27 / 2.10 / 2.77,2.38,3/9 (3.97)
N37T R99P,ND / ND / ND,ND,2/9 (4.01)
Q27Y Q95E S103A,2.13 / 2.73 / 2.56,2.47,1/9 (3.55)
E32M E61I S62T,2.52 / 2.24 / 3.12,2.63,2/9 (3.34)
K24C N35I K36F,ND / ND / ND,ND,0/9
S28M S62E Q95N,0.89 / 0.74 / 0.67,0.77,0/9
K24W Y31T N35W,2.93 / 2.28 / 2.59,2.60,3/9 (3.57)
S26I S33F L102Q,ND / ND / ND,ND,1/9 (2.02)
S58W Y97K S103T,ND / ND / ND,ND,0/9
R34V K36A,3.72 / ND / ND,3.72,0/9
S28R V29E A40V,ND / ND / ND,ND,0/9
S38K E61L P101C,4.78 / ND / ND,4.78,3/9 (3.81)
T59G E61M R99I,2.33 / ND / ND,2.33,1/9 (2.89)
Q27Y N37S A40W,ND / 4.59 / ND,4.59,3/9 (3.61)
Y31D A40H E61T,ND / ND / ND,ND,0/9
K24C A40G,ND / ND / ND,ND,0/9

From the list, the first 3 with no signal in any replicate:

changes,log10 Kd (nM) by replicate,"log10 Kd (nM), mean",empty controls
K24S S25T A40C,ND / ND / ND,ND,1/9 (4.11)
V29F Q95I,ND / ND / ND,ND,1/9 (3.11)
S25I S58C S62L,ND / ND / ND,ND,0/9

Empty control strains, which show no peptide, gave a signal in 18% of pairings with library AAYL50; the median was 4.19 and 95% of these signals were weaker than 2.99. No background was subtracted. The control count says in how many pairings with the empty strains this scFv gave a signal, with their mean in brackets.